Assay results taken from patent US20230293647A1.

Target: Angiotensin II (UniProt P01019)
Experiment: SPR, ACE2-Fc captured on Protein A, angiotensin II as analyte, 1:1 Langmuir fit

“Active ACE2 (18-740)-Fc (ACRO biosystems) (from UniProt Q9BYF1 18-740) (Fc fusion)” was tested. Which Kd did it give?
The Kd was 0.117 µM.
